Target: Cytosol aminopeptidase (Homo sapiens, UniProt P28838)
Assay: Inhibition of proline iminopeptidase)

Chains of the proteins cited; added tags and fusions are not shown. Lines headed by an entry give the natural chain unless they say otherwise; changes in a name come on top.
UniProt P28838: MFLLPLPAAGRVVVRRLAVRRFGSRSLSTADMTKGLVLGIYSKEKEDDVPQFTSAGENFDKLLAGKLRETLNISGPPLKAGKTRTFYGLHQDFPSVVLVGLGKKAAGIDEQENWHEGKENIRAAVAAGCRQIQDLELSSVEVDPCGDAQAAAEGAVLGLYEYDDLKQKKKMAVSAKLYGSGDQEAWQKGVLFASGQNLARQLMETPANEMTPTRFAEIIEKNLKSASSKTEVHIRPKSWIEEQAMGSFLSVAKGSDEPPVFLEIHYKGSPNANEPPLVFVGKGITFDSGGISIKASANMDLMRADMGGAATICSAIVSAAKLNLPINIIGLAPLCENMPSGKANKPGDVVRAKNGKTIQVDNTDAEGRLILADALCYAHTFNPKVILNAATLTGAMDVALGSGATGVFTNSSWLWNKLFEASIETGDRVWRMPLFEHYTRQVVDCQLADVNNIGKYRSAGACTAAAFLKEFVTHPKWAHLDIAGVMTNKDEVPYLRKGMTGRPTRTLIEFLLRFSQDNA

## O=C(CO)[C@@H]1CCCN1C(=O)[C@@H]1CCCN1C(=O)NCc1ccccc1
  IC50: > 100 µM
